Experimental data taken from patent publication US20130345182A1, “STABLE COMPOSITION COMPRISING CHOLESTEROL-LOWERING AGENTS, ANTIHYPERTENSIVE AGENTS AND ANTIPLATLET AGENTS” (Silanes Laboratories, priority 2010, published 2013).

Conditions: human, in vivo

Cmax: 240.56 ng/mL
SMILES: CC[C@H](C)C(=O)O[C@H]1C[C@H](O)C=C2C=C[C@H](C)[C@H](CC[C@@H](O)C[C@@H](O)CC(=O)O)[C@H]21 [Pravastatin sodium, pravastatin sodium]
